This is an account of results in PubChem BioAssay AID720507 (National Center for Advancing Translational Sciences (NCATS), 2013).

By UniProt entry, the sequences of proteins in these tests, tags left out.
UniProt P14416, whole entry, looked up: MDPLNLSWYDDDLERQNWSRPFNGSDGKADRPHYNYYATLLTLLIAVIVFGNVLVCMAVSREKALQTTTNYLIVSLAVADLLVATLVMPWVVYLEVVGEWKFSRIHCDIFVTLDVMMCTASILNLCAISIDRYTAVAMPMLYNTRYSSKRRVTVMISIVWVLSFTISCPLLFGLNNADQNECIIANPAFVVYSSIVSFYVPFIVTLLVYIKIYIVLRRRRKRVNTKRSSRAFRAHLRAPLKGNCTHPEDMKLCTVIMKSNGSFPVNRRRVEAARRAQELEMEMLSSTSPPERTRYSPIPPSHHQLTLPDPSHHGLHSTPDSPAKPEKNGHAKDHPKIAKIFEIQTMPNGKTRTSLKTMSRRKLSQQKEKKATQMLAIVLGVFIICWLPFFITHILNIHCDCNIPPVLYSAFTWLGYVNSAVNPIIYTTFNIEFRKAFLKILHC

SMILES strings stand for the structures. This is a selection; strong and weak results do not stand in their true shares. Records with an inconclusive call do not appear. The source made the active and inactive calls. The call rests on the fitted dose curve; in most records, active means well fitted activation curve with a large enough effect; inconclusive means small, poorly fitted or top-dose-only effect; inactive means flat fitted curve, though single readings scatter.
Potency means the concentration at half of the fitted maximal effect.

This assay deals with D(2) dopamine receptor (Homo sapiens) (UniProt P14416). The assay can be described thus: qHTS of D3 Dopamine Receptor Agonist: D2 Dopamine Receptor B-arrestin Agonist Counterscreen. Further: nearly all actives have a fitted effect of over 70% in size. The note with it: DiscoveRx PathHunter D2 beta-arrestin, luminescence, 90 min. The source says: D3 DARs represent a very important target for the treatment of several neuropsychiatric disorders. Indeed, one of the most promising therapeutic applications for the D3 DAR is in the area of addiction and related disorders. […] These findings have been observed with a number of addictive substances including cocaine, amphetamine, nicotine, and alcohol. […] Increased D3 DAR activity can thus lead to neuroprotective and neurorestorative actions in the CNS. […] This assay is used to profile the activity of the identified D3 dopamine receptor agonist against the D2 dopamine receptor. Greater than 10% of the maximum dopamine agonist response is desired for this assay. NIH Molecular Libraries Probe Production Centers Network [MLPCN] NIH Chemical Genomics Center [NCGC] MLPCN Grant: NS064831 Assay Submitter (PI): David Sibley
DiscoveRx D2 cells were thawed from frozen stock and seeded at 2,100 cells/ 3 uL/well media (DiscoveRx Plating Reagent 2) with MultiDrop Combi dispenser (Thermo Scientific, Logan, UT) onto white tissue culture treated 1536-well Aurora plates (Brooks Automation, Chelmsford, MA) and allowed to attach overnight at 37 deg C, 5% CO2. […] The plates were incubated at ambient temperature for 1 hour and then the luminescent signal was read on ViewLux plate reader (PerkinElmer, Waltham, MA).
For orientation: Quantitative high-throughput screening tests each substance at several concentrations.
Take `CCCN1CCC[C@H](c2cccc(O)c2)C1`: the Potency is active: 2820 nM.
